Patent publication US5833994A, “Use of the AH receptor and AH receptor ligands to treat or prevent cytopathicity of viral infection” (Paracelsian, Inc., priority 1997, dated 1998)

Assays:
[1] = biological target: T1, Ah receptor (Cavia porcellus, UniProt Q6J287); assay: Inhibition of Ah receptor transformation, antagonist test (Ah-immunoassay, 0.5 nM TCDD); settings: plus 0.5 nM TCDD
T1 sequence (Q6J287 1-846): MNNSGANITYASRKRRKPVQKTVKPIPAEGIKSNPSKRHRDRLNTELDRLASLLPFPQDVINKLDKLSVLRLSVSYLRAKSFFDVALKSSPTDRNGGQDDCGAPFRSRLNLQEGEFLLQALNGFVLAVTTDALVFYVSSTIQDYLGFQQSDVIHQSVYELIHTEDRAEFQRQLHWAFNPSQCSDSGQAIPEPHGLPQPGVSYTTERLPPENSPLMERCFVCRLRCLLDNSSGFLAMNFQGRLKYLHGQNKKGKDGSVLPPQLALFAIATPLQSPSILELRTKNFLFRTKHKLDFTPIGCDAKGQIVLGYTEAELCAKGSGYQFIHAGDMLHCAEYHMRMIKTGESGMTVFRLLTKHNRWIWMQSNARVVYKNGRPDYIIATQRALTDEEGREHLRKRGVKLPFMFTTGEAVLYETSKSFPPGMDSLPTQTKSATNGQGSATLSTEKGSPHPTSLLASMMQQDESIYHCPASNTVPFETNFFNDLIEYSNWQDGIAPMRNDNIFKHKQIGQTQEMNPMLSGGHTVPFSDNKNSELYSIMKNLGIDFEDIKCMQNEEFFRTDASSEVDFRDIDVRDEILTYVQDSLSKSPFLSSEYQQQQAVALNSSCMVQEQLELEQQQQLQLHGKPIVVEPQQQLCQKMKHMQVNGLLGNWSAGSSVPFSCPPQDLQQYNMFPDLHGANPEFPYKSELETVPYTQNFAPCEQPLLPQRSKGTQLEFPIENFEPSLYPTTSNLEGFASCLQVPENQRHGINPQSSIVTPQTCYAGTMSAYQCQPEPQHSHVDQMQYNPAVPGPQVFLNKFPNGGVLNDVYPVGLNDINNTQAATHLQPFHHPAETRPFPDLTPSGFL

[2] = biological target: T1, Ah receptor; assay: Ah receptor transformation, agonist test (Ah-immunoassay, absence of TCDD); type: biochemical, Guinea pig; settings: no TCDD added

Compound: O=c1cc(-c2ccccc2)oc2c1ccc1ccccc12 [α-naphthoflavone]
- inhibition of Ah receptor transformation, ELISA reading at 405 nm ([1]; Table 7, 7.81 μM): 735
- inhibition of Ah receptor transformation, ELISA reading at 405 nm ([1]; Table 7, 15.63 μM): 458
- inhibition of Ah receptor transformation, ELISA reading at 405 nm ([1]; Table 7, 31.25 μM): 338
- inhibition of Ah receptor transformation, ELISA reading at 405 nm ([1]; Table 7, 62.5 μM): 248
- inhibition of Ah receptor transformation, ELISA reading at 405 nm ([1]; Table 7, 125 μM): 296
- inhibition of Ah receptor transformation, ELISA reading at 405 nm ([1]; Table 7, 250 μM): 279
- inhibition of Ah receptor transformation, ELISA reading at 405 nm ([1]; Table 7, 500 μM): 308.5
- Ah receptor transformation, ELISA reading at 405 nm ([2]; Table 7, 7.81 μM): 85
- Ah receptor transformation, ELISA reading at 405 nm ([2]; Table 7, 15.63 μM): 10
- Ah receptor transformation, ELISA reading at 405 nm ([2]; Table 7, 31.25 μM): 20
- Ah receptor transformation, ELISA reading at 405 nm ([2]; Table 7, 62.5 μM): 31.5
- Ah receptor transformation, ELISA reading at 405 nm ([2]; Table 7, 125 μM): 77.5
- Ah receptor transformation, ELISA reading at 405 nm ([2]; Table 7, 250 μM): 149.5
- Ah receptor transformation, ELISA reading at 405 nm ([2]; Table 7, 500 μM): 263
